Values of other authors, collected in Sander's compilation of Henry's law constants (doi:10.1016/j.chemosphere.2021.129858).

Test: Henry solubility constant Hcp at 298.15 K (mol/(m3 Pa))
Conditions: reference: Schwardt et al. (2021); cited value

- Henry solubility constant Hcp: 0.001
SMILES: CCl [chloromethane]
